# Measurements: PubChem BioAssay AID602179 (National Center for Advancing Translational Sciences (NCATS), 2012)
# Protein sequences, listed by entry. Tags and fused reporters are not part of them.
# UniProt O75874, whole entry, looked up, stated change not applied: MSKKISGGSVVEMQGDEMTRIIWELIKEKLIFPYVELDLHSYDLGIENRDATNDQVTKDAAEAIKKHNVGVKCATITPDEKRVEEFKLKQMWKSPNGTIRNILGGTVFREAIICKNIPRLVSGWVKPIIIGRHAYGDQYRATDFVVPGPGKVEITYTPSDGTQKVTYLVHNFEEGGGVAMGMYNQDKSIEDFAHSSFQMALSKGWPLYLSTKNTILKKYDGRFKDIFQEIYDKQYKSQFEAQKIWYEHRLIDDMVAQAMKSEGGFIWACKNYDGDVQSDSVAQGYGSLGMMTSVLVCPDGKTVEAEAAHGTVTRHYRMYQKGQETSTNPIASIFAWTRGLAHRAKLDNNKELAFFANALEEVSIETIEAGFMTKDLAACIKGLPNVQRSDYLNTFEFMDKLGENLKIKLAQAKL
# Only a part is listed here, and it is no random draw. Calls of active or inactive are those of the source. The call rests on the fitted dose curve; in most records, active means well fitted inhibition curve with a large enough effect; inconclusive means small, poorly fitted or top-dose-only effect; inactive means no such curve, though single readings can be large or run the other way.
# Target: Isocitrate dehydrogenase [NADP] cytoplasmic (Homo sapiens) (UniProt O75874)
# Test: qHTS for Inhibitors of mutant isocitrate dehydrogenase 1 (IDH1): qHTS; further: nearly all actives have a fitted effect of over 65% in size
# Settings: IDH1-R132H enzyme, NADPH consumption, diaphorase/resazurin fluorescence; at 76.6 µM (top of the series)
# Excerpt: Unbiased genomic sequencing for 22 glioma genomes found recurrent mutation of isocitrate dehydrogenase 1 (IDH1) on chromosome 2q33-a gene encoding the cytosolic isoform of IIDH1associated with the tricarboxylic acid cycle (TCA) that catalyzes the oxidative decarboxylation of isocitrate, yielding alpha-ketoglutarate and CO2 via NADP+ to NADPH conversion. Subsequent studies confirmed the recurrent IDH mutations in up to 70% of secondary gliomas and in 10% of AML cases. […] This in effect defines IDH1 as an oncogene, and provides an extraordinary opportunity to discover chemical probes against mutant IDH1 that may translate into much needed new therapies for glioma and AML patients. […] NIH Chemical Genomics Center [NCGC] NIH Molecular Libraries Probe Centers Network [MLPCN] MLPCN Grant: DA032129 Assay Submitter (PI): Lenny Dang, Agios Pharmaceuticals
# IDH1-R132H (0.5 ug/mL) was dispensed into black, solid-bottom 1536-well plates at 3 uL/well in 20 mM Tris-HCl (pH 7.5), 150 mM NaCl, 10 mM MgCl2, 4 mM beta-ME, and 0.05% protease-free BSA. Then, 23 nL of compounds or DMSO were delivered to each well using a pin tool. A pre-read was run on the Viewlux to identify fluorescent compounds (540 nm excitation filter, 598 nm emission filter, bodipy mirror and 2 second exposure). After 30 minutes of incubation with compound, 3 uL of substrate mix were dispensed (0.016 mM NADPH, 2 mM alpha-KG, 20 mM Tris-HCl (pH 7.5), 150 mM NaCl, 10 mM MgCl2, and 0.05% protease-free BSA). Plates were spun for 1 min at 1000xg and incubated at room temperature for 80 min. Then 1.5 uL of each detection reagent component for the coupling system were added (0.12 mg/mL diaphorase and 0.072 mM resazurin, each in 20 mM Tris-HCl (pH 7.5), 150 mM NaCl, 10 mM MgCl2, and 0.05% protease-free BSA ) The protein, substrate and two detection components were maintained at 4 °C throughout the screen. Additionally, the substrate and resazurin reagents were protected from light. The plates were measured on an Envision plate reader for fluorescence signal using a 540 nm excitation filter and 590 nm emission filter with 10 flashes. 1x and 0x (no-enzyme) IDH1-R132H enzyme control were used to normalize %Activity of identified inhibitors; 0x enzyme values corresponded to 100% Activity (full inhibition), while 1x IDH1-R132H enzyme values were used to normalize 0%Activity (no inhibition). Concentration-response curves were fitted to the signals arising from the resulting fluorescence. The concentration-effect curves were then classified based on curve quality (r2), response magnitude and degree of measured activity, and compounds were subsequently categorized based on their curve class. […] Keywords: isocitrate dehydrogenase, IDH1, IDH1-R132H, MLSMR, MLPCN, NIH Roadmap, qHTS, NCGC
row,Structure (SMILES),"activity change, negative = inhibition"
1,O=P(Nc1nc2ccccc2s1)(c1ccccc1)c1ccccc1,inactive: -6.54%
2,CC(=O)NC(SC(=S)N(CC(C)C)CC(C)C)C(Cl)(Cl)Cl (stereo not given),inactive: 2.95%
3,Cc1ccc(OP(=O)(Nc2ccccn2)Oc2ccc(C)cc2)cc1,inactive: -4.75%
4,COC(=O)c1cc2c(s1)N=C(c1ccccc1)N(C)P2(=O)N1CCOCC1 (stereo not given),inactive: -0.0845%
5,CCC(=O)N1C2C3N(C(=O)CC)C1C1N(C(=O)CC)C(C(N1C(=O)CC)N3C(=O)CC)N2C(=O)CC,inactive: 0.0387%
6,O=C(OC1CN2CCC1CC2)c1ccccc1 (stereo not given),inactive: 1.39%
7,CN(C)C(=O)Oc1noc2ccccc12,inactive: -3.24%
8,O=c1c2cc([N+](=O)[O-])ccc2[nH]c2c([N+](=O)[O-])cc([N+](=O)[O-])cc12,inactive: 36.3%
9,Cc1ccccc1OP(=O)(Nc1ccccn1)Oc1ccccc1C,inactive: 2.37%
10,CC(NC(=O)COC(=O)C(O)(c1ccccc1)c1ccccc1)c1ccccc1 (stereo not given),inactive: 8.89%
11,CCNC(=S)/N=C(\N)N[N+](=O)[O-],inactive: 8.8%
12,O=C(NC1CCS(=O)(=O)C1)NP(=S)(Oc1ccccc1)Oc1ccccc1 (stereo not given),inactive: 2.77%
13,Cc1ccc(NP(=O)(Oc2cccc(C)c2)Oc2cccc(C)c2)nc1,inactive: 4.56%
14,c1ccc(-c2nn[nH]n2)c(-c2nn[nH]n2)c1,inactive: -3.8%
15,O=P1(N(CCCl)CCCl)OCCC2CCCCN21 (stereo not given),inactive: 2.75%
16,COC(=O)C1(C)COP(=O)(NCc2ccccc2)OC1 (stereo not given),inactive: 2.23%
17,N#C/C(=C\c1ccc(N(CCBr)CCBr)cc1)C(N)=O,inactive: 13%
18,CC(=O)c1ccc(N2CC2c2ccncc2)cc1 (stereo not given),inactive: -6.54%
19,C[C@@H]1C=CCP(=O)(Oc2ccccc2)O1 (stereo not given in full),inactive: -8.16%
20,C[C@H]1OP(=O)(Oc2ccccc2)C[C@@H]2O[C@@H]21 (stereo not given in full),inactive: 15.8%
21,Cc1ccccc1CN(C)C(=O)COC(=O)C(O)(c1ccccc1)c1ccccc1,inactive: 1.48%
22,CC(=O)Nc1ccc(Oc2c([N+](=O)[O-])cc([N+](=O)[O-])cc2[N+](=O)[O-])cc1,inactive: 0.208%
23,CC(=O)Nc1ccc([As](=O)(O)O)c(O)c1,inactive: 3.08%
24,CCOc1ccc(C2=NCC(CBr)S2)cc1 (stereo not given),inactive: -11.5%

row,Structure (SMILES),"activity change, negative = inhibition"
1,O=P1(Nc2nc3ccc(Cl)cc3s2)COc2ccccc2O1 (stereo not given),inactive: 0.648%
2,CCc1cc(O)c([N+](=O)[O-])c(C)c1[N+](=O)[O-],inactive: -4.96%
3,CC(C)(C)C(=O)NC(Sc1ccccc1)C(Cl)(Cl)Cl (stereo not given),inactive: 0.717%
4,CC(C)CC(=O)NC(Sc1ccc(Cl)cc1)C(Cl)(Cl)Cl (stereo not given),inactive: 7.7%
5,Nc1cc(N)c2nonc2c1[N+](=O)[O-],inactive: 3.68%
6,O=C(NC(Sc1ccncn1)C(Cl)(Cl)Cl)c1ccccc1 (stereo not given),inactive: 1.34%
7,Oc1ccccc1CNc1ccccn1,inactive: 1.05%
8,NC(=O)c1cc([N+](=O)[O-])cc([N+](=O)[O-])c1N,inactive: -5.11%
9,Cc1ccc(N/C(=N/P(=O)(N2CCOCC2)N2CCOCC2)N2CCOCC2)cc1,inactive: 4.53%
10,CN(C(=O)Cc1ccc(Cl)c(Cl)c1)[C@H]1CCCC[C@H]1N1CCCC1,inactive: -18.2%
11,Cc1ccc(OP(=O)(Nc2nccs2)Oc2ccc(C)cc2)cc1,inactive: 1.59%
12,COc1ccccc1OP(=O)(Nc1ccc(C)cn1)Oc1ccccc1OC,inactive: 0.581%
13,Clc1ccc(Cl)c(NC2=NCC(CBr)S2)c1 (stereo not given),inactive: 4.01%
14,CN1CCCC(OC(=O)C(c2ccccc2)c2ccccc2)C1 (stereo not given),inactive: 4.17%
15,CCN(N=Nc1nonc1N)c1nonc1N,inactive: -3.52%
16,Nc1cccc2ccc([As](=O)(O)O)cc12,inactive: 8.35%
17,CCCC1OP(N)(=O)OCC1CC (stereo not given),inactive: 4.87%
18,O=C(O)c1ccccc1[As](=O)(O)O,inactive: -1.04%
19,CC(=O)Nc1ccc([As](=O)(O)O)cc1,inactive: 4.17%
20,CN(C)P(=O)(N(C)C)n1c(Nc2ccccc2)nnc1-c1ccccc1,inactive: 1.71%
21,O=P(Nc1nc2ccc(Cl)cc2s1)(c1ccccc1)c1ccccc1,inactive: -4.91%
22,Cc1ccc(NP(=O)(Oc2ccccc2F)Oc2ccccc2F)nc1,inactive: 2.23%
23,CN(C(=O)Cc1ccc(Cl)c(Cl)c1)[C@H]1CCCC[C@@H]1N1CCCC1,inactive: 2.35%
24,CCOP(=O)(Nc1ccccc1)OCC,inactive: 7.72%

row,Structure (SMILES),"activity change, negative = inhibition"
1,Cc1cc(SC(NC(=O)c2ccc(F)cc2)C(Cl)(Cl)Cl)ncn1 (stereo not given),inactive: 3.68%
2,CC(C)(C)C(=O)NC(Sc1ccncn1)C(Cl)(Cl)Cl (stereo not given),inactive: 3.7%
3,O=[N+]([O-])c1ncn(CCn2ncnc2[N+](=O)[O-])n1,inactive: 0.314%
4,O=[N+]([O-])c1cccc(NC2=NCC(CBr)S2)c1 (stereo not given),inactive: -6.39%
5,COC(=O)C1(C)COP(=O)(Nc2ccccc2)OC1 (stereo not given),inactive: -1.73%
6,O=C(O)CNc1ccc([As](=O)(O)O)cc1,inactive: 0.683%
7,O=P1(N(CCCl)CCCl)OCCCS1 (stereo not given),inactive: -8.5%
8,O=C(Nc1cc([As](=O)(O)O)ccc1O)c1ccccc1,inactive: -3.95%
9,C[N+]1=C2C=CC=CC=C2SC12C([N+](=O)[O-])=CC([N+](=O)[O-])=C[C-]2[N+](=O)[O-] (stereo not given),inactive: 11.3%
10,Nc1ccc([As](=O)(O)c2ccc(N)cc2)cc1,inactive: 6.82%
11,CCN(/C(=N/P(=O)(N1CCOCC1)N1CCOCC1)N1CCOCC1)c1ccc(OC)cc1,inactive: 0.795%
12,CN(C)C(=O)OCCc1n(C)cc[n+]1C,inactive: 1.02%
13,CC(C)=N/N=C(\N)N[N+](=O)[O-],inactive: 1.53%
14,CC(C)c1nc(Nc2ccccc2)n(P(=O)(N(C)C)N(C)C)n1,inactive: 7.1%
15,c1cc(-c2nn[nH]n2)ccc1-c1nn[nH]n1,inactive: 1.24%
16,CC1CCN(C(=O)Oc2c(Cl)cc(Cl)c3cccnc23)CC1,inactive: 3.69%
17,COc1ccc(C2=NCC(CBr)S2)cc1 (stereo not given),inactive: 9.91%
18,O=[N+]([O-])c1cccc2n[nH]nc12,inactive: 2.2%
19,CC(=O)N1C2C3N(C(C)=O)C1C1N(C(C)=O)C(C(N1C(C)=O)N3C(C)=O)N2C(C)=O,inactive: -1.07%
20,CCc1nc2c(n1)c1c(non1O)c1c2no[n+]1[O-],inactive: 5.41%
21,O=[N+]([O-])c1cc([N+](=O)[O-])c(CCNc2ccccc2)c([N+](=O)[O-])c1,inactive: 2.16%
22,Cc1ccc(NP(=O)(Oc2ccccc2)Oc2ccccc2)nc1,inactive: -1.03%
